In US20180177850A1:

B1: oxyntomodulin derivative of SEQ ID NO: 17 (peptide)
peptide: HSQGTFTSDYSRYLDEEAVRLFIEWIRNTKRNRNNIA
modifications: not checked
B2: oxyntomodulin derivative of SEQ ID NO: 2 (peptide)
peptide: B1 peptide with R12K, I26L, R27M
modifications: not checked
B3: oxyntomodulin derivative of SEQ ID NO: 13 (peptide)
peptide: HSQGTFTSDYSRYLDEEAVELFIEWLMNTK
modifications: not checked
B4: oxyntomodulin derivative of SEQ ID NO: 4 (peptide)
peptide: HGQGTFTSDYSRYLEEEAVRLFIEWLKNGGPSSGAPPPS
modifications: not checked

The binders below were run against human glucagon receptor (human), P47871 (assay: cell-based or functional assay).

Binder | EC50 (cAMP, CHO/GCGR)
B1 | > 1000 nM
B2 | 12.8 nM
B3 | > 1000 nM

Biological target: T1, human GLP-1 receptor (human), P43220
T1 chain: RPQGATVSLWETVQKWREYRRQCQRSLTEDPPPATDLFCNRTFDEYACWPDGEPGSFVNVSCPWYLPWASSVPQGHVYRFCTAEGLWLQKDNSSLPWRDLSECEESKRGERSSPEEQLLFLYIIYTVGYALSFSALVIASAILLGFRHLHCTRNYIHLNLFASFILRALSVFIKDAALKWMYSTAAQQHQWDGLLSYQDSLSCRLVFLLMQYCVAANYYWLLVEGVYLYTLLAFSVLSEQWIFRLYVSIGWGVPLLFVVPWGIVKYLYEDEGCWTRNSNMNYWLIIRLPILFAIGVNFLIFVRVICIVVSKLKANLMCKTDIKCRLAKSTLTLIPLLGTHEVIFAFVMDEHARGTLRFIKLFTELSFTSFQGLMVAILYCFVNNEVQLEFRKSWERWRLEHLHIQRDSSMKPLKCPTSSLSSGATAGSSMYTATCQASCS
Assay: cell-based or functional assay

Binder | EC50 (cAMP, CHO/GLP-1R)
B4 | 5.5 nM
B1 | 97.9 nM
B2 | 51.8 nM
B3 | > 1000 nM

Residue numbers refer to the chain shown, from its start.
